# scFv variants of Ab-91 (heavy chain) against a SARS-CoV-2 spike peptide

Source: Engelhart et al. 2022 (doi:10.1038/s41597-022-01779-4), MIT Lincoln Laboratory and A-Alpha Bio; data file from the FLAb repository.

Target peptide (SARS-CoV-2 spike, HR2 region): PDVDLGDISGINAS

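Library AAYL51 holds single substitutions and randomly drawn double and triple substitutions in the CDRs. In AlphaSeq, yeast of one mating type display the scFv and yeast of the other type display the target. The frequency of each diploid, read from paired DNA barcodes, reflects how well the two displayed proteins bind. The ratio of observed to expected reads was calibrated, replicate by replicate, on BCL2-family standards whose Kd was known from biolayer interferometry. The assay was run in three technical replicates.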

Parent scFv Ab-91: VL joined to VH by a 15-residue (Gly4Ser)3 linker. Changes lie in the heavy chain CDRs alone.
VL: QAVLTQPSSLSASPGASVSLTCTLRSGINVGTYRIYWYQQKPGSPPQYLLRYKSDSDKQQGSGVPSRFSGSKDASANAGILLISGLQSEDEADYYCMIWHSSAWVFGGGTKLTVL
VH: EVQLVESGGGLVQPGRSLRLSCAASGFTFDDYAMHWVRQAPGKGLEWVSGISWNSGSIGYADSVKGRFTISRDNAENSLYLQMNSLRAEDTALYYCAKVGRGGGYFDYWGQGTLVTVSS

Each variant is given by its three heavy chain CDRs, as the data file delimits them; those of the parent are GFTFDDYAMH, GISWNSGSIGYADSVK, VGRGGGYFDY.
Values are log10 of the apparent Kd in nM; lower means stronger binding.
Averages over replicates are reported, and they cover detected replicates only.
Where no diploid with the target was found in any replicate, the entry reads "nd": below detection, most likely a poor binder, though not proof of it.
For reference, the parent read 1.86 as the reference entry and 0.88 as a member of this library.
As a blank, each scFv also met three strains without target: over library AAYL51, 21% of these pairings were detected, typically at 4.54 and seldom below 3.26. The control count says in how many pairings with the empty strains this scFv gave a signal.

CDR-H1	CDR-H2	CDR-H3	mean, log10 nM	detected	empty controls
GFTFDDYAMH	GPSWNSGSIGYAPSCK	VGRGGGYFDY	nd	0/3	3/9
GFTFDDKAMH	GISWNSGSIGGADSTK	VGRGGGYFDY	nd	0/3	5/9
GFTFDDRAMH	GISWNSGMIGRADSVK	VGRGGGYFDY	nd	0/3	0/9
GFTFDDYAMH	GTSWNSGSIGYADSVK	VGRGYGYFDQ	5.66	3/3	6/9
GFGFDDYAMH	GISWNSGSIGYADFVK	TGRGGGYFDY	nd	0/3	0/9
GFTFDDYAMH	GISTNSGSIGYAHSVK	VGRGGGYFDY	2.40	3/3	5/9
GFTFDDNAMH	TISWNSGSIGYAPSVK	VGRGGGYFDY	5.91	2/3	5/9
GFTFDIYAMH	GVSWNSGSIGYADSVK	VGRGGGTFDY	nd	0/3	2/9
GFTMDDYAMH	GESWNSGSIGYADSVK	YGRGGGYFDY	nd	0/3	4/9
GFTFDDYAMH	GISWNSGSIGYADSVK	LGRGGNYFLY	nd	0/3	0/9
GFTFDDYAMH	GVSWNTGSIGYADTVK	VGRGGGYFDY	2.99	1/3	0/9
GFTFDDYAMH	GLWWNSGSIGYADSVK	VGRGGGYFIY	4.41	2/3	4/9
GFTFDDYAMH	GISWNHGSIGYADNVK	VGRGGGYGDY	3.45	3/3	1/9
GFTFDDYAMH	GISWNSGSIGYHESVK	VGRGGGYMDY	3.70	1/3	2/9
GFTPDDVAMH	GISWNSGSIGYADSVK	VGRVGGYFDY	5.04	2/3	1/9
GFTFDDYAMH	GIKSNSGSIGIADSVK	VGRGGGYFDY	4.47	1/3	2/9
GFTFDDYAMH	GKSWNSGSIGYADSVK	VGRVGGYFDM	nd	0/3	2/9
GFTFDDYAMH	GISWNSGAIDYADSVK	VGRGGGYFYY	5.16	2/3	2/9
GFTFDDYAMH	GISWNSGSIGYADSVK	YGRGGLYFYY	1.70	3/3	7/9
EFTFDDYAMH	GISWNSGSWGYVDSVK	VGRGGGYFDY	3.26	3/3	2/9
GFTFDDYAMH	GISWNAGSKGYADSVK	VGRGGGYFEY	4.99	3/3	8/9
GFTIDDSAMH	GISWNSGSIGYADSVK	VGMGGGYFDY	2.00	3/3	1/9
GFTFDDYLMH	GISWNSGKIGYADSVK	TGRGGGYFDY	nd	0/3	0/9

Continued, with the values leading:

mean, log10 nM	detected	empty controls	CDR-H1	CDR-H2	CDR-H3
3.95	1/3	2/9	GFTFDDYAMH	GRSWNSGRIGYACSVK	VGRGGGYFDY
nd	0/3	1/9	GFTFVDYAAH	GISWNSGPIGYADSVK	VGRGGGYFDY
5.70	1/3	1/9	GFTFDDYATH	GISWNSGSIKYADSVK	VGRGGSYFDY
4.71	1/3	0/9	NFTFDDYAMH	GISWNAGSIGYADSVK	VGRGGGKFDY
nd	0/3	0/9	GFTFDDYAMW	GIFWNSGSIGYADSVK	AGRGGGYFDY
nd	0/3	0/9	GFTFDDYYMH	GISWNSGSIGYADSVK	VGRGGGVFDY
2.71	3/3	4/9	GFTFDDYAMH	GISWNSGSIGYADSCK	VGPGGGEFDY
nd	0/3	1/9	GFTFDDYAMH	GISWNSGSIGYADWVK	VGDGGGYFDI
4.63	3/3	9/9	VFTFDDYAMH	GISWNSGSIGYADPVK	VGRGGGYFLY
4.89	1/3	0/9	GFTFDDYAMH	GISWNSGSIGYADSVK	VGRGAGYFVQ
nd	0/3	0/9	GFTFDDQAMH	GISWNSGSIGYADSVK	VGMGGGYFNY
4.61	1/3	0/9	GFTFDDYAMH	GISWNPGSRGYADSVG	VGRGGGYFDY
nd	0/3	0/9	GFTFDDYAAL	GISWNAGSIGYADSVK	VGRGGGYFDY
5.09	1/3	3/9	GFTFDDYAMH	GISWQSGSIGYAHSVK	VGRMGGYFDY
3.38	3/3	4/9	GFPFDDYAMH	GISWNSGSIGYADSVK	VGRGGGYFND
nd	0/3	0/9	GFEFDEYAGH	GISWNSGSIGYADSVK	VGRGGGYFDY
4.45	2/3	3/9	GFTFDDLAMH	PISWNSGSIGYADSVK	VGRGGGYFQY
nd	0/3	0/9	GFTFDDYAFH	GISWNSGSNEYADSVK	VGRGGGYFDY
5.14	1/3	4/9	GFTFDDYAMF	GICWNSGSIGYADSVK	LGRGGGYFDY
5.33	2/3	3/9	GFTFDDYAVH	GISWNEGSIGYADSGK	VGRGGGYFDY
4.67	2/3	3/9	GFTFDDYAMH	GISWNSGSIGYADSVY	QGRGGGGFDY
nd	0/3	0/9	GFTFDDYMML	GWSWNSGSIGYADSVK	VGRGGGYFDY
3.34	2/3	3/9	GFKFDDYAMH	GISWCSGSGGYADSVK	VGRGGGYFDY